Structures are written as SMILES. Where only a bound is given, the exact number is not on record here.

Amino acid sequences for entries named in this document (tags omitted).
UniProt Q07820, whole entry: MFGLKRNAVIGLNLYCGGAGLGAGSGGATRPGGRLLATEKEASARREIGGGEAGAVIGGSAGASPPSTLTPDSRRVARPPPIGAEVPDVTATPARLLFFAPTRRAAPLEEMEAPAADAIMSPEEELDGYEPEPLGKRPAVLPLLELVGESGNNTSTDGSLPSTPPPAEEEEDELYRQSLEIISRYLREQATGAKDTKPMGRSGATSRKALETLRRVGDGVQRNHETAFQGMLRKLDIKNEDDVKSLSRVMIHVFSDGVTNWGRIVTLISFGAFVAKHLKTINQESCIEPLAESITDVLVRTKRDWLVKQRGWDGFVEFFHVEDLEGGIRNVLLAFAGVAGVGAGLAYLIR

This assay addresses Mcl-1 (Homo sapiens, UniProt Q07820). The assay is described as follows: Fluorescence polarization (FP)-based binding assay, Mcl-1. The conditions noted are these: FP competitive binding, Flu-BID probe; 3-5 independent experiments; read-out: Mcl-1 IC50 ± SD. For orientation: Polarisation of emitted light reports the rotation of a fluorescent probe.

As for `CN(C)CC[C@H](CSc1ccccc1)Nc1ccc(S(=O)(=O)NC(=O)c2ccc(N3CCN(Cc4ccccc4-c4ccc(Cl)cc4)CC3)cc2)cc1[N+](=O)[O-]` [ABT-737], the IC50 was above 1000 nM.

In general, IC50 refers to the concentration that gives 50% inhibition.

Values taken from patent US9096625B2, “BCL-2/BCL-XL inhibitors and therapeutic methods using the same” (THE REGENTS OF THE UNIVERSITY OF MICHIGAN, priority 2013, dated 2015).
